Experiment [1] has as its target native CD30 on KARPAS 299 cells (Homo sapiens (KARPAS 299), UniProt P28908). Briefly: flow cytometry on cells; antibody on KARPAS 299 cells (native CD30), 30 min on ice; detected with anti-human IgG Fcγ-PE. The note with it: one partner purified. (In general: A flow cytometer gives signals particle by particle.)
For experiment [2], the target named is T1, CD30 on CD30-stably expressed NF-κB reporter Ramos-Blue cells (human, UniProt P28908-1).
T1 construct: human CD30 (TNFRSF8), full length, on transfected Ramos-Blue cells; also called CD30-Ramos-Blue; CD30-RB; source: Ramos-Blue cells stably transfected (pcDNA6-derived plasmid, blasticidin selection), on cells
Briefly: flow cytometry on cells; antibody in dilution series on CD30-stably expressing Ramos-Blue (CD30-RB) cells, 30 min on ice; detected with anti-human IgG Fcγ-PE. Particulars: one partner purified.

By UniProt entry, the sequences of proteins in these tests, tags left out. Residues count along the entry.
UniProt P28908, 19-595: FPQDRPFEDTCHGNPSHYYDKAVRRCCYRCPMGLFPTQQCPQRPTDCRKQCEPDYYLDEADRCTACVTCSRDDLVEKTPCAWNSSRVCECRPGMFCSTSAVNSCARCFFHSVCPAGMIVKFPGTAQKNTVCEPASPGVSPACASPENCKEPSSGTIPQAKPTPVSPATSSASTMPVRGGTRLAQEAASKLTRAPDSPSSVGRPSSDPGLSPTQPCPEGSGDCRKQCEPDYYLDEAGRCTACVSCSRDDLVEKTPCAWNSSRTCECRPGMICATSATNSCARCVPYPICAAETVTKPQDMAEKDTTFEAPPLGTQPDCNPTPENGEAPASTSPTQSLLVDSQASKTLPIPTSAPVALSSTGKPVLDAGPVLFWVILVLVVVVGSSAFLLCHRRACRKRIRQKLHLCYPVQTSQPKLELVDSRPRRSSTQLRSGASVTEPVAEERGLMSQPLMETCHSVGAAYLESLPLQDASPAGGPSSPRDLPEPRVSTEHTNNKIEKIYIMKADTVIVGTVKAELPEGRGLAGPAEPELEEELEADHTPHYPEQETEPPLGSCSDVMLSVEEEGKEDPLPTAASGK

B1: T427 cAb (antibody, V domains shown)
VH: QVQLQQPGTELVRPGASVKLSCKASGFSFTSYWMNWVKQRPGQGLEWIGMIHPSDSETRLNQKFKDRATLTVDKSSSTAYMQLSSPTSEDSAVYYCASEMDYYFAMDYWGQGTSVTVSS
VL: DIVLTQSPTSLAVSLGQRATISCRASESVDSYGNSFMHWFQQKPGQPPKLLIYRASNLESGIPARFSGSGSWTDFTLTINPVEADDVATYYCQQSNEDPRTFGGGTKLEIK
Consider B1, for which the binding result in experiment [1] and in experiment [2] was “binds” in each case.

B2: T6 cAb (antibody, V domains shown)
VH: QVQLKESGPGLVTPSQSLSITCTVSGFSLSKYSIHWVRQPPGRGLEWLGMIWGVENTDYNSALKSRLSISKDNSKSQVFLKMNSLQSDDTAMYYCARKDLGLYGMNYWGQGISVTVSA
VL: DIVMTQSQKFMSTSVGDRVSVTCKASQNVGTNVAWYQQKPGQSPKALFYSASYRYSGVPDRFIGSGSGTVFTLTISNVQSEDLAEYFCQQYNTYPLTFGSGTKLEIE
For B2, the binding result in experiment [1] and in experiment [2] was “binds” throughout.

B3: T105 cAb (antibody, V domains shown)
VH: QVTLKESGPGILQPSQTLSLTCSFSGFSLSTSGMGVSWIRQPSGKDLEWLAHIYWDDDKRYNPSLKSRLTISKDTSSNQVFLKITSVDTADTATYYCARRADGLYFYLDVWGAGTTVTVSS
VL: DIVMTQSQKFMSTSVGDRVSVTCKASQNVNTNVAWYQQKPGQSPEALIYSASYRYSGVPDRFTGSGSGTDFTLTISNVQSEDLAEYFCQQYNSYPLTFGSGTKLEIK
For the molecule B3, the binding result in experiment [1] and in experiment [2] was “binds” in each case.

B4: T104 cAb (antibody, V domains shown)
VH: QIQLVQSGPELKKPGETVKISCKASGYTFTDYSMHWVKQAPGKGLKWMGWINTETGEPTYADDFKGRFAFSLETSASTAYLQINNLKNEDTATYFCTEGYVFDFWGQGTTLTVSS
VL: DILLTQSPAILSVSPGERVSFSCRASRSIGTSIHWYQQRTNGSPRLLINYASESISGIPSRFSGSGSGTDFTLSINSVESEDIADYYCQQSNSWPLTFGAGTKLELK
Regarding B4, the binding result in experiment [1] and in experiment [2] was “binds” each time.

B5: T107 cAb (antibody, V domains shown)
VH: QVQLQQSGPELVRPGVSVKISCKGSGYSFPDYPLHWVKQSHAKSLEWIGIILTYSGNTNYNQNFKGKATMTVDTSSNTAYLELARLTSEDSAIYYCATFYYGYDGAFDYWGQGTTLTVSS
VL: DIVMTQSPSSLTVTAGEKVTMSCKSSQSLLNSGNQKNYLTWYQQKPGQPPKLLIHWASTRESGVPDRFTGSGSGTDFILTITSVQAEDLAVYYCQNDYTYPLTFGGGTKLELK
Turning to B5, the binding result in experiment [1] and in experiment [2] was “binds” each time.

B6: T25 cAb (antibody, V domains shown)
VH: QVTLKESGPGILQPSQTLSLTCSFSGFSLNTSGVGVGWIRQPSGKGLEWLAHIWWDDDERYNPVLKSRLTISKDTSSNQVFLKIANVDTADSATYYCVRSMVAWFPYWGRGTLVTVSA
VL: DIVMSQSPSSLAVSVGEKFTVNCKSSQSLLYSSNQKNFLAWYQQKPGQSPKLLIYWASTRESGVPDRFIGSGSGTDFTLTISSVKAEDLAVYYCQQHYRYPWTFGGGTKLEIK
Turning to B6, the binding result in experiment [1] and in experiment [2] was “binds” throughout.

B7: T426 cAb (antibody, V domains shown)
VH: EVQLQQSGAELVKPGASVKLSCTASGFNVKDTYVHWVKQRPEQGLEWIGRIDPANSDTKYDSKFQGKATTSADTSSNTAYLQLNSLTSEDTAVYYCASGTDDYYWYFDVWGAGTTVTVSS
VL: DIVLTQSPASLAVSLGQRATISCRASKSVSTPAHTYMHWYQQKPGQPPKLLIYLASNLESGVPARFSGSGSGTDFTLNIHPVEVEDAATYYCQHSRVLPYTFGGGTKLEIK
In the case of B7, the binding result in experiment [1] and in experiment [2] was “binds” throughout.

B8: T405 cAb (antibody, V domains shown)
VH: QVQLQQIGAELVRPGASVKLSCKASGYTFNNYWINWVKQRPGQGLEWIGNIYPSDSRSNYNQKFKDKATLTVDKPSSTAYMQLSSPTSEDSAVYYCTLGSYWGQGTLVTVSA
VL: not shown
Consider B8, for which the binding result in experiment [1] and in experiment [2] was “binds” each time.

B9: AC10 cAb (antibody, V domains shown)
VH: QIQLQQSGPEVVKPGASVKISCKASGYTFTDYYITWVKQKPGQGLEWIGWIYPGSGNTKYNEKFKGKATLTVDTSSSTAFMQLSSLTSEDTAVYFCANYGNYWFAYWGQGTQVTVSA
VL: DIVLTQSPASLAVSLGQRATISCKASQSVDFDGDSYMNWYQQKPGQPPKVLIYAASNLESGIPARFSGSGSGTDFTLNIHPVEEEDAATYYCQQSNEDPWTFGGGTKLEIK
Consider B9, for which the binding result in experiment [1] and in experiment [2] was “binds” in each case.

Values taken from PMC11826918, “Generation of antagonistic biparatopic anti-CD30 antibody from an agonistic antibody by precise epitope determination and utilization of structural characteristics of CD30 molecule” (Antibody Therapeutics, 2025).
